Data published in patent US20240368565A1, “COMPLEMENTATION-BASED TAGS AND REPORTERS FOR DUAL-MODALITY LABELING” (Promega Corporation, priority 2023, published 2024).

The chains behind the UniProt entries cited, without tags or fusion partners. A line that says so, or that is headed by a name, gives the form on record, which may keep a tag or linker. Residues count along the entry.
UniProt P0A3G2, 23-290 with tags or gaps with the stated changes: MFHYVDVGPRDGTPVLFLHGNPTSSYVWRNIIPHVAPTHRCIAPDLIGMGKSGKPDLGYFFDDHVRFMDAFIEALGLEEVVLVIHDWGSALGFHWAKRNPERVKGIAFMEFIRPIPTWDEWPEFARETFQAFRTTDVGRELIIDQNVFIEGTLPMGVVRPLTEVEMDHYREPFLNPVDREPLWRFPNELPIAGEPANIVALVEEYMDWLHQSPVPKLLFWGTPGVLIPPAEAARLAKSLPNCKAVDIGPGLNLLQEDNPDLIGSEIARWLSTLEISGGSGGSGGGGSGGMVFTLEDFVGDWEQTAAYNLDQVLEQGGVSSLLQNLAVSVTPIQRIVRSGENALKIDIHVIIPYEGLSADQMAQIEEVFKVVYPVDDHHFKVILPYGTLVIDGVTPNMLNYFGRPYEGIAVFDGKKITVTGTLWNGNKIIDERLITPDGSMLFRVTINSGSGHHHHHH

Molecular target: HaloTag[22-297](M2F + D53G + K140E)-12xGly/Ser-LgBiT-3xGly/Ser-6xHis (Rhodococcus rhodochrous, UniProt P0A3G2, A155T/A167V/A172T/A224E/C128F/C176G/D73G/D78G/E257K/H272N/K175M/K195N/L47V/L88M/N227D/S58T/T264A/Y273L/Y87F)
Experiment: Biolayer interferometry, polypeptide reporter/synthetic peptide complementation
Format: binding
Settings: biotinylated peptide on streptavidin probes, PBST, 25° C.

Compound `CC[C@H](C)[C@H](NC(=O)[C@H](CCCCN)NC(=O)[C@H](CCCCN)NC(=O)[C@H](Cc1ccccc1)NC(=O)[C@H](CC(C)C)NC(=O)[C@H](CCCNC(=N)N)NC(=O)[C@H](Cc1c[nH]c2ccccc12)NC(=O)CNC(=O)[C@H](CO)NC(=O)[C@@H](NC(=O)[C@H](CO)NC(=O)[C@@H](NC(=O)CCCC[C@@H]1SC[C@@H]2NC(=O)N[C@@H]21)C(C)C)C(C)C)C(=O)N[C@@H](CO)C(=O)NCC(=O)NCC(=O)N[C@@H](CO)C(=O)NCC(=O)NCC(=O)N[C@@H](CCC(=O)O)C(=O)N[C@@H](CCCNC(=N)N)C(=O)NCC(=O)N[C@H](C(=O)NCC(=O)N[C@@H](Cc1ccccc1)C(=O)N1CCC[C@H]1C(=O)N[C@@H](Cc1ccccc1)C(=O)N[C@@H](CC(=O)O)C(=O)N1CCC[C@H]1C(=O)N[C@@H](Cc1c[nH]cn1)C(=O)N[C@@H](Cc1ccc(O)cc1)C(=O)N[C@H](C(=O)N[C@@H](CCC(=O)O)C(=O)N[C@H](C(=O)N[C@@H](CC(C)C)C(=O)NCC(=O)O)C(C)C)C(C)C)[C@@H](C)O` has a Kd of 0.782 nM.
